Data on six molecules can be found in PMC4620681 (Bioorganic & medicinal chemistry letters, 2015).

Chains of the proteins cited; added tags and fusions are not shown. Lines headed by an entry give the natural chain unless they say otherwise; changes in a name come on top.
UniProt P32300, whole entry: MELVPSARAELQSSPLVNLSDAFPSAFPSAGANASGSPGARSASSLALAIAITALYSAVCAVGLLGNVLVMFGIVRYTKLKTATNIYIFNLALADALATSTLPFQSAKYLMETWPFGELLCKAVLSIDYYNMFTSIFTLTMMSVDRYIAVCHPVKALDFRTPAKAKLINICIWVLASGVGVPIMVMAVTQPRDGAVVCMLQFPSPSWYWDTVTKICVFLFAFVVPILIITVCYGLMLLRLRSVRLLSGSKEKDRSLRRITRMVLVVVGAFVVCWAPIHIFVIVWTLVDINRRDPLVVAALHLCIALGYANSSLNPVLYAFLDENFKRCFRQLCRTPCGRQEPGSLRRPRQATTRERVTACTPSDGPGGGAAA
UniProt P41145: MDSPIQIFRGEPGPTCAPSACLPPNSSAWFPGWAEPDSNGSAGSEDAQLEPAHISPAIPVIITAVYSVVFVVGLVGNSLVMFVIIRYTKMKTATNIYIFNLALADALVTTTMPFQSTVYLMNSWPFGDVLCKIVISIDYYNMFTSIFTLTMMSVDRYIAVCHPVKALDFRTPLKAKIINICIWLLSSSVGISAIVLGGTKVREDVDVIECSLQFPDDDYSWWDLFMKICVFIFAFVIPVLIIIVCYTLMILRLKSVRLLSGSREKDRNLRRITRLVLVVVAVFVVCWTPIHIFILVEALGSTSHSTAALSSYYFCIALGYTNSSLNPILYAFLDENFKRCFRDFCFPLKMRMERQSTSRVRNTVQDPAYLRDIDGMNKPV

One assay concerns the target mouse DOR (Mus musculus, UniProt P32300). The class given is binding. The settings on record: read-out: Ki ± SEM δ.
The next assay deals with human KOR (hKOR) (Homo sapiens, UniProt P41145). It counts as binding. The settings on record: read-out: Ki ± SEM κ.

The Ki is a measure of affinity in units of concentration, obtained from inhibition or displacement. For the molecule `COC[C@@]1(C)C[C@@H](C(=O)OC)[C@]2(C)CC[C@H]3C(=O)O[C@H](c4ccoc4)C[C@]3(C)[C@H]2C1=O` [Compound 9a, 2-methyl-2-methoxymethyl-salvinorin ether], the Ki on mouse DOR was more than 1000 nM.

Regarding `COC[C@@]1(C)C[C@@H](C(=O)OC)[C@]2(C)CC[C@@H]3C(=O)O[C@H](c4ccoc4)C[C@]3(C)[C@H]2C1=O` [Compound 9b], the inhibition constant Ki on mouse DOR was more than 1000 nM.

`COC[C@@]1(CCCCCI)C[C@@H](C(=O)OC)[C@]2(C)CC[C@H]3C(=O)O[C@H](c4ccoc4)C[C@]3(C)[C@H]2C1=O` [Compound 13a]: at mouse DOR, the Ki is more than 1000 nM.

For the molecule `COC[C@@]1(CCCCCI)C[C@@H](C(=O)OC)[C@]2(C)CC[C@@H]3C(=O)O[C@H](c4ccoc4)C[C@]3(C)[C@H]2C1=O` [Compound 13b], the Ki at mouse DOR is more than 1000 nM. As to `COC[C@@]1(CCOCCI)C[C@@H](C(=O)OC)[C@]2(C)CC[C@H]3C(=O)O[C@H](c4ccoc4)C[C@]3(C)[C@H]2C1=O` [Compound 14a], at human KOR (hKOR), the inhibition constant Ki was 108 ± 19 nM. `COC[C@@]1(CCOCCI)C[C@@H](C(=O)OC)[C@]2(C)CC[C@@H]3C(=O)O[C@H](c4ccoc4)C[C@]3(C)[C@H]2C1=O` [Compound 14b]: at human KOR (hKOR), the inhibitory constant (Ki) came out at 316 ± 70 nM.
